# According to patent US20250325569A1, “COMPOSITIONS AND METHODS OF MAKING AND USE THEREOF” (Ohio State Innovation Foundation, priority 2022, published 2025):
# Columns and labels:
# [1] = system: Paenibacillus larvae NRRL B-2605; experiment: microbe, parasite or virus in culture
# Experimental: (§1) Antimicrobial Assays. […] Susceptibility testing was performed using the microbroth dilution method in 96 round-well microtiter plates as previously described [A20]. Compounds were prepared as 50× of stocks (10 Mm) by dissolving in Di H2O. All bacterial strains were grown and assayed M9 glucose media (with amendments added as required), and yeast strains in YMM. Controls wells contained 200 µM kanamycin (for bacteria) or nystatin (for yeasts), no compound addition (vehicle only), and no cell addition (added media instead). Culture densities (OD600) were recorded using a Bio-Rad xMark microplate spectrophotometer after 16 hours for all strains except bacilli, which were recorded after 24 hours. […] MICs values are from triplicate assays performed on separate days. Disk diffusion assays were used to assess antimicrobial activity of the purified compounds against filamentous fungi and against Mycobacterium smegmatis [A20].
# [2] = system: Serratia marcescens NRRL B-2544; experiment: Microbroth dilution MIC; assay type: cell-based
# Experimental: (§2) Antimicrobial Assays. Susceptibility testing was performed using the microbroth dilution method in 96 round-well microtiter plates following the general guidelines described by the Clinical and Laboratory Standards Institute (CLSI). Compounds were prepared as 50λ of stocks (10 mM) by dissolving in dI H2O. All bacterial strains were grown and assayed in Mueller-Hinton and M9 glucose media (with amendments added as required), and yeast strains in YMM. Overnight cultures were inoculated into 3 mL of fresh growth media following a 1:100 dilution. Upon mid-exponential growth (OD600 0.4-0.6), cultures were diluted to 5×10^6 CFU mL-1 (based on previously determined calibration curves) and used as inoculum into assay plates. Wells contained 100 μL of media with 5×10^5 CFU mL-1 of test organism, and serial ½-dilutions of the test compound (starting with 200 μM). E. coli WM6242 was assayed with induction of the phosphonic acid uptake system including 1 mM IPTG in assay wells. Controls wells contained 200 µM kanamycin (for bacteria) or nystatin (for yeasts), no compound addition (vehicle only), and no cell addition (added media instead). Microtiter plates were incubated with shaking (220 rpm) at their respective growth temperatures. Culture densities (OD600) were recorded using a Bio-Rad xMark microplate spectrophotometer after 16 hours for all strains except Bacillus, which were after 24 hours. Assays were performed in triplicated on separate independent days. […] Minimum inhibitory concentrations are from triplicate assays performed on separate days.
# as §1
# [3] = system: Citrobacter freundii ATCC 8090; experiment: Microbroth dilution MIC; assay type: cell-based
# Experimental: as §2, §1
# Pseudomonas aeruginosa K = experiment: Microbroth dilution MIC; assay type: cell-based
# Experimental: as §2, §1
# [4] = system: Enterobacter aerogenes CDC 1998-68; experiment: Microbroth dilution MIC; assay type: cell-based
# Experimental: as §2, §1
# [5] = system: Acinetobacter calcoaceticus ATCC 23055; experiment: Microbroth dilution MIC; assay type: cell-based
# Experimental: as §2, §1
# [6] = system: Bacillus subtilis ATCC 6633; experiment: Microbroth dilution MIC; assay type: cell-based
# Experimental: as §2, §1
# [7] = system: Pantoea ananatis LMG 20103; experiment: Microbroth dilution MIC; assay type: cell-based
# Experimental: as §2, §1
# [8] = system: Pseudomonas aeruginosa PA01; experiment: Microbroth dilution MIC; assay type: cell-based
# Experimental: as §2, §1
# [9] = system: Bacillus megaterium ATCC 19213; experiment: Microbroth dilution MIC; assay type: cell-based
# Experimental: as §2, §1
# Salmonella enterica LT2 = experiment: Microbroth dilution MIC; assay type: cell-based
# Experimental: as §2, §1
# Escherichia coli K12 = experiment: Microbroth dilution MIC; assay type: cell-based
# Experimental: as §2, §1
# Rhodococcus jostii RHA1 = experiment: Microbroth dilution MIC; assay type: cell-based
# Experimental: as §2, §1
# [10] = system: Staphylococcus aureus ATCC 23055; experiment: Microbroth dilution MIC; assay type: cell-based
# Experimental: as §2, §1
# [11] = system: Erwinia rhapontici KSJ3948; experiment: Microbroth dilution MIC; assay type: cell-based
# Experimental: as §2, §1
# [12] = system: Acidovroax delafieldii ATCC 17505; experiment: Microbroth dilution MIC; assay type: cell-based
# Experimental: as §1
# [13] = system: Acidovorax temperans ATCC 49665; experiment: Microbroth dilution MIC; assay type: cell-based; settings: ATCC49665
# Experimental: as §1
# [14] = system: Pseudomonas fluorescens Pf5; experiment: Microbroth dilution MIC; assay type: cell-based
# Experimental: as §1
# [15] = system: Acidovorax konjacii ATCC 33996; experiment: Microbroth dilution MIC; assay type: cell-based
# Experimental: as §1
# [16] = system: Salmonella enterica ser. Tennessee E2007000304; experiment: Microbroth dilution MIC; assay type: cell-based
# Experimental: as §1
# [17] = system: Acidovorax avenae ATCC 19860; experiment: Microbroth dilution MIC; assay type: cell-based; settings: Paracidovorax avenae, ATCC19860
# Experimental: as §1
# [18] = system: Pseudomonas medocina Palleroni ATCC 25411; experiment: Microbroth dilution MIC; assay type: cell-based; settings: ATCC25411
# Experimental: as §1
# [19] = system: Pseudomonas syringae pv. Tomato Max 14; experiment: Microbroth dilution MIC; assay type: cell-based
# Experimental: as §1
# [20] = system: Acidovorax citrulli ATCC 29625; experiment: Microbroth dilution MIC; assay type: cell-based; settings: Paracidovorax citrulli, ATCC29625
# Experimental: as §1
# [21] = system: Escherichia coli WM6242 (Pn Uptake Induced); experiment: Microbroth dilution MIC, phosphonate uptake induced with 1 mM IPTG; assay type: cell-based
# Experimental: (§3) Antimicrobial Assays. […] Compounds were prepared as 50λ of stocks (10 mM) by dissolving in dI H2O. […] Overnight cultures were inoculated into 3 mL of fresh growth media following a 1:100 dilution. Upon mid-exponential growth (OD600 0.4-0.6), cultures were diluted to 5×10^6 CFU mL-1 (based on previously determined calibration curves) and used as inoculum into assay plates. Wells contained 100 μL of media with 5×10^5 CFU mL-1 of test organism, and serial ½-dilutions of the test compound (starting with 200 μM). E. coli WM6242 was assayed with induction of the phosphonic acid uptake system including 1 mM IPTG in assay wells. […] Microtiter plates were incubated with shaking (220 rpm) at their respective growth temperatures. […] Assays were performed in triplicated on separate independent days. […] Minimum inhibitory concentrations are from triplicate assays performed on separate days.
# Escherichia coli WM6242 = experiment: Microbroth dilution MIC; assay type: cell-based
# Experimental: as §3
# [22] = system: yeast, and filamentous fungi; experiment: Antifungal activity: microbroth dilution (yeasts) and disk diffusion (filamentous fungi); assay type: cell-based; settings: panel of yeast and filamentous fungi (Table 12)
# Experimental: Antimicrobial Assays. Susceptibility testing was performed using the microbroth dilution method in 96 round-well microtiter plates following the general guidelines described by the Clinical and Laboratory Standards Institute (CLSI). Compounds were prepared as 50λ of stocks (10 mM) by dissolving in dI H2O. All bacterial strains were grown and assayed in Mueller-Hinton and M9 glucose media (with amendments added as required), and yeast strains in YMM. Overnight cultures were inoculated into 3 mL of fresh growth media following a 1:100 dilution. Upon mid-exponential growth (OD600 0.4-0.6), cultures were diluted to 5×10^6 CFU mL-1 (based on previously determined calibration curves) and used as inoculum into assay plates. Wells contained 100 μL of media with 5×10^5 CFU mL-1 of test organism, and serial ½-dilutions of the test compound (starting with 200 μM). E. coli WM6242 was assayed with induction of the phosphonic acid uptake system including 1 mM IPTG in assay wells. […] Culture densities (OD600) were recorded using a Bio-Rad xMark microplate spectrophotometer after 16 hours for all strains except Bacillus, which were after 24 hours. […]
# Antimicrobial Assays. […] Culture densities (OD600) were recorded using a Bio-Rad xMark microplate spectrophotometer after 16 hours for all strains except bacilli, which were recorded after 24 hours. […]
# [23] = system: Pseudomonas syringae B278a; experiment: microbe, parasite or virus in culture; assay type: cell-based
# Experimental: as §1
compound,measurement,setting,value
CC(N)C(=O)NC(C)C(=O)NC(CP(=O)(O)O)C(=O)O (stereo not shown) [Compound 3],antibacterial activity (in words),[1],strong inhibition
same,MIC,[1]; NRRLB2605,12.5 µM
same,antibacterial activity (in words),[2]; Serratia marcescens NRRL B-2544,active
same,MIC,"[2]; Serratia marcescens, NRRLB2544",200 µM
same,MIC,"[2]; Table 13, Serratia marcescens NRRL B-2544, minimal media",200 µM
same,MIC,"[3]; Citrobacter freundii, ATCC8090",> 200 µM
same,MIC,"[3]; Table 13, Citrobacter freundii ATCC 8090, minimal media, ≥90% growth inhibition",>200 µM
same,MIC,Pseudomonas aeruginosa K; Pseudomonas aeruginosa,25 µM
same,antibacterial activity (in words),Pseudomonas aeruginosa K; Pseudomonas aeruginosa K,active
same,MIC,"Pseudomonas aeruginosa K; Table 13, Pseudomonas aeruginosa K, minimal media",25 µM
same,MIC,"[4]; Klebsiella aerogenes, CDC199868",> 200 µM
same,MIC,"[4]; Table 13, Enterobacter aerogenes CDC 1998-68, minimal media, ≥90% growth inhibition",>200 µM
same,MIC,"[5]; Acinetobacter calcoaceticus, ATCC23055",> 200 µM
same,MIC,"[5]; Table 13, Acinetobacter calcoaceticus ATCC 23055, minimal media",>200 µM
same,antibacterial activity (in words),[6]; B. subtilis,strong inhibition
same,MIC,"[6]; Bacillus subtilis, ATCC6633",12.5 µM
same,MIC,"[6]; Table 13, Bacillus subtilis ATCC 6633, minimal media",12.5 µM
same,antibacterial activity (in words),[7]; Pantoea ananatis,strong inhibition
same,MIC,"[7]; Pantoea ananatis, LMG20103",3.12 µM
same,MIC,"[7]; Table 13, Pantoea ananatis LMG 20103, minimal media, ≥90% growth inhibition",3.12 µM
same,MIC,"[8]; Pseudomonas aeruginosa, PA01",> 200 µM
same,MIC,"[8]; Table 13, Pseudomonas aeruginosa PA01, minimal media",>200 µM
same,antibacterial activity (in words),[9]; B. megaterium,strong inhibition
same,MIC,"[9]; Priestia megaterium, ATCC19213",6.25 µM
same,MIC,"[9]; Table 13, Bacillus megaterium ATCC 19213, minimal media",6.25 µM
same,MIC,"Salmonella enterica LT2; Salmonella enterica, LT2",12.5 µM
same,antibacterial activity (in words),"Salmonella enterica LT2; Salmonella enterica, LT2",active
same,MIC,"Salmonella enterica LT2; Table 13, Salmonella enterica LT2, minimal media, ≥90% growth inhibition",12.5 µM
same,MIC,"Escherichia coli K12; Escherichia coli, K12",6.25 µM
same,antibacterial activity (in words),"Escherichia coli K12; Escherichia coli, K12",active
same,MIC,"Escherichia coli K12; Table 13, Escherichia coli K12, minimal media, ≥90% growth inhibition",6.25 µM
same,MIC,"Rhodococcus jostii RHA1; Rhodococcus jostii, RHA1",> 200 µM
same,MIC,"Rhodococcus jostii RHA1; Table 13, Rhodococcus jostii RHA1, minimal media",>200 µM
same,MIC,"[10]; Staphylococcus aureus, ATCC23055",> 200 µM
same,MIC,"[10]; Table 13, Staphylococcus aureus ATCC 23055, minimal media",>200 µM
same,antibacterial activity (in words),[11]; Erwinia rhapontici,strong inhibition
same,MIC,"[11]; Erwinia rhapontici, KSJ3948",6.25 µM
same,MIC,"[11]; Table 13, Erwinia rhapontici KSJ3948, minimal media, ≥90% growth inhibition",6.25 µM
same,MIC,[12],> 200 µM
same,MIC,[13],> 200 µM
same,MIC,[14],> 200 µM
same,MIC,[15],> 200 µM
same,MIC,[16],> 200 µM
same,MIC,[17],> 200 µM
same,MIC,[18],> 200 µM
same,MIC,[19],> 200 µM
same,MIC,[20],> 200 µM
same,MIC,[21],> 200 µM
same,antibacterial activity (in words),"Escherichia coli WM6242; Escherichia coli WM6242, encodes IPTG-inducible phosphonate uptake transporters",inactive
same,MIC,"Escherichia coli WM6242; Escherichia coli, WM6242",> 200 µM
same,antifungal activity (in words),[22],neither compound exhibited antifungal activity
same,MIC,[23],> 200 µM
